Assay results as given in patent US20220024982A1, “BICYCLIC PEPTIDE LIGANDS SPECIFIC FOR MT1-MMP” (BicycleTx Limited, priority 2018, published 2022).

Molecular target: human MT1 MMP14 protein, hemopexin domain (obtained from Merck Millipore) (human) (UniProt P50281)
Assay: SPR, biotinylated target on streptavidin chip

- pKd: 7.25
Substance: BCY12403 (peptide)

pKd: −log10 of the molar value.
